{"sequences": {"note": "The chains behind the UniProt entries cited, without tags or fusion partners.", "UniProt P58154, whole entry": "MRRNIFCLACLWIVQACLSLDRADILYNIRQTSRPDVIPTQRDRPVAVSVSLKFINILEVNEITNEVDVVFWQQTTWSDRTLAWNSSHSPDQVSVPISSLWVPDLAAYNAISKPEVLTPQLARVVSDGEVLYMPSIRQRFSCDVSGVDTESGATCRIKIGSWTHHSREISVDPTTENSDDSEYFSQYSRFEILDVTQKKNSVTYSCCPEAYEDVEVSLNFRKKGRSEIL"}, "source": "ChEMBL document CHEMBL1828593", "about": "(Bioorg Med Chem, 2011)", "target": "Acetylcholine-binding protein (Lymnaea stagnalis, UniProt P58154)", "assay": "Displacement of [3H]-epibatidine from histidine-tagged Lymnaea stagnalis AChBP expressed in Sf9 cells after 1.5 hrs by liquid scintillation counting", "note": "pKi: −log10 of the molar value.", "data": [{"smiles": "CN1CCC[C@H]1c1cccnc1", "note": "[NICOTINE]", "values": [{"measurement": "pKi", "value": 6.50}]}]}
